Data: US5534498A, “Trypsin inhibitors” (Corvas International, Inc., priority 1993, dated 1996)

Tests used:
Type in all cases: biochemical
human urokinase = target: T1, human urokinase (Homo sapiens, UniProt P00749); assay: Urokinase assay (S-2444 substrate); settings: [IC50 for Trypsin/IC50 for other enzyme]×100; lower = more trypsin selective
T1 construct: 50 μL of 270 U/mL human urokinase
Description: (§1) The specificity of the peptide aldehydes (8 through 12) was determined in vitro by measurement of their IC50 against other enzymes involved in hemostasis. A specific concentration of enzyme and its substrate were challenged with varying concentrations of inhibitor. IC50 is that concentration of inhibitor giving 50% inhibition of substrate turnover, under the assay conditions. Specific assay procedures used are presented below.
(§2) 96-well microtiter plates were prepared for use in these assays by incubating each well with 300 μL 1% bovine serum albumin (in deionized water) for 30 minutes at 37° C., then washing three times with deionized water.
Enzyme activity was determined using as substrate S-2444 [L-pyroglutamyl-L-glycyl-L-arginine-p-nitroanilide hydrochloride], purchased from Kabi Diagnostica. The substrate was made up in deionized water prior to use.
The assay was run by combining in appropriate wells 50 μL inhibitor in TBS or TBS alone and 50 μL of 270 U/mL human urokinase (or TBS as background control) and 50 μL TBS, incubating this mixture for 30 minutes at room temperature, adding 50 μL 1 mM S-2444, incubating for an additional 30 minutes at room temperature, then reading the absorbance of the wells at 405 nm on a microtiter plate reader set with background substraction at 650 nm.

[1] = target: recombinant tissue plasminogen activator (Homo sapiens, UniProt P00750); assay: Tissue plasminogen activator assay (S-2288 substrate); settings: [IC50 for Trypsin/IC50 for other enzyme]×100; lower = more trypsin selective
Description: as §1, with “IC50 is that concentration of inhibitor giving 50% inhibition of substrate turnover, under the assay conditions.” left out
as §2
(§3) The substrate was made up in deionized water prior to use.

human Factor XIa = target: T2, human Factor XIa (Homo sapiens, UniProt P03951); assay: Factor XIa assay (S-2366 substrate); settings: [IC50 for Trypsin/IC50 for other enzyme]×100; lower = more trypsin selective
T2 construct: 50 μL of 5 nM human Factor XIa
Description: as §1, with “IC50 is that concentration of inhibitor giving 50% inhibition of substrate turnover, under the assay conditions.” left out
as §2, §3

[2] = target: T3, Activated human Protein C (Homo sapiens, UniProt P04070); assay: Protein C assay (Pefachrome PC substrate); settings: [IC50 for Trypsin/IC50 for other enzyme]×100; lower = more trypsin selective
T3 construct: from tissue
Description: as §1, with “IC50 is that concentration of inhibitor giving 50% inhibition of substrate turnover, under the assay conditions.” left out
as §2
Enzyme activity was determined using as substrate, Pefachrome PC [δ-carbobenzoloxy-D-lysyl-L-prolyl-L-arginine-p-nitroanilide], purchased from Centerchem, Inc. The substrate was made up in deionized water prior to use. Protac used to activate Protein C was obtained from American Diagnostics.

human Factor Xa = target: T4, human Factor Xa (Homo sapiens, UniProt P00742); assay: Factor Xa assay (Pefachrome Xa substrate); settings: [IC50 for Trypsin/IC50 for other enzyme]×100; lower = more trypsin selective
T4 construct: 50 μL 30 nM human Factor Xa
Description: as §1, with “IC50 is that concentration of inhibitor giving 50% inhibition of substrate turnover, under the assay conditions.” left out
as §2
Enzyme activity was determined using as substrate, Pefachrome Xa [N-methoxycarbonyl-D-cyclohexylalanyl-L-glycyl-L-arginine p-niroanilide acetate], purchased from Centerchem, Inc. The substrate was made up in deionized water prior to use.

bovine thrombin = target: T5, bovine thrombin (Bos taurus, UniProt P00735); assay: Thrombin assay (S-2238 substrate); settings: [IC50 for Trypsin/IC50 for other enzyme]×100; lower = more trypsin selective
T5 construct: 50 μL 20 nM bovine thrombin
Description: as §1, §2
Enzyme activity was determined using as substrate, S-2238 [D-phenylalanyl-L-pipecolyl-L-arginine-p-nitroanilide dihydrochloride], purchased from Kabi Diagnostica. The substrate was made up in deionized water prior to use.
The assay was run by combining in appropriate wells 50 μL TBS and 50 μL inhibitor in TBS or TBS alone and 50 μL 20 nM bovine thrombin (or TBS as background control), incubating this mixture for 30 minutes at room temperature, adding 50 μL 1 mM S-2238, incubating for an additional 30 minutes at room temperature, then reading the absorbance of the wells at 405 nm on a microtiter plate reader set with background substraction at 650 nm.

Factor VIIa:rTF complex = target: T6, Factor VIIa:rTF complex (Homo sapiens, UniProt P08709); assay: Factor VIIa assay (S-2288 substrate); settings: [IC50 for Trypsin/IC50 for other enzyme]×100; lower = more trypsin selective
T6 construct: 2.5 ml 400 nMhuman Factor VIIa
Description: as §1, §2
Enzyme activity was determined using as substrate, S-2288 [D-isoleucyl-L-prolyl-L-arginine-p-nitroanilide dihydrochloride], purchased from Kabi Diagnostica. The substrate was made up in deionized water prior to use. […]
The assay was run by combining in appropriate wells 50 μL inhibitor in TBS or TBS alone and 100 μL of Factor VIIa:rTF complex or background control, incubating this mixture for 30 minutes at room temperature, adding 50 μL of 2 mM S-2288, incubating for an additional 30 to 60 minutes at room temperature, then reading the absorbance of the wells at 405 nm on a microtiter plate reader set with background substraction at 650 nm.

human kallekrein = target: T7, human kallekrein (Homo sapiens, UniProt P03952); assay: Kallikrein assay (S-2302 substrate); settings: [IC50 for Trypsin/IC50 for other enzyme]×100; lower = more trypsin selective
T7 construct: 50 μL of 4 to 9 nM human kallekrein
Description: as §1, with “IC50 is that concentration of inhibitor giving 50% inhibition of substrate turnover, under the assay conditions.” left out
as §2, §3

bovine trypsin = target: T8, bovine trypsin (Bos taurus, UniProt P00760); assay: Trypsin assay, IC50 (S-2222 substrate); settings: trypsin relative to itself (reference, 100 by definition)
T8 sequence (P00760 24-246): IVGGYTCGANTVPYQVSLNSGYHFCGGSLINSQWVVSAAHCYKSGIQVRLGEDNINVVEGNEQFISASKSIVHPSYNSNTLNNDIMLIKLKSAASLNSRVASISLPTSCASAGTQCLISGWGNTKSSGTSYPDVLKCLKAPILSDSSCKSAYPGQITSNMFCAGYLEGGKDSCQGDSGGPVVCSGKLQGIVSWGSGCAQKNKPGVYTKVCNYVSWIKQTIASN
Description: as §1, with “IC50 is that concentration of inhibitor giving 50% inhibition of substrate turnover, under the assay conditions.” left out
as §2, §3

plasmin = plasmin (Homo sapiens, UniProt P00747); assay: Plasmin assay (S-2251 substrate); set-up: 50 μL 25 nM human plasmin; settings: [IC50 for Trypsin/IC50 for other enzyme]×100; lower = more trypsin selective
Description: as §1, with “IC50 is that concentration of inhibitor giving 50% inhibition of substrate turnover, under the assay conditions.” left out
as §2, §3

CC(=O)N[C@@H](CC(C)C)C(=O)N[C@@H](CC(C)C)C(=O)N[C@H](C=O)CCCNC(=N)N [Leupeptin, reference compound]
Calculated % Selectivity UK (human urokinase): 0%
Calculated % Selectivity tPA [1]: 0%
Calculated % Selectivity XIa (human Factor XIa): 15%
Calculated % Selectivity Protein C [2]: < 6.8%
Calculated % Selectivity Xa (human Factor Xa): 6.8%
Calculated % Selectivity Thrombin (bovine thrombin): 8.5%
Calculated % Selectivity VIIa (Factor VIIa:rTF complex): < 6.8%
Calculated % Selectivity Kallikrein (human kallekrein): 43%
Calculated % Selectivity Trypsin (bovine trypsin): 100%
Calculated % Selectivity Plasmin (plasmin): 21%
